Measurements reported in ChEMBL document CHEMBL1133608 (J Med Chem, 2000).

The chains behind the UniProt entries cited, without tags or fusion partners.
UniProt P61169, whole entry S197A: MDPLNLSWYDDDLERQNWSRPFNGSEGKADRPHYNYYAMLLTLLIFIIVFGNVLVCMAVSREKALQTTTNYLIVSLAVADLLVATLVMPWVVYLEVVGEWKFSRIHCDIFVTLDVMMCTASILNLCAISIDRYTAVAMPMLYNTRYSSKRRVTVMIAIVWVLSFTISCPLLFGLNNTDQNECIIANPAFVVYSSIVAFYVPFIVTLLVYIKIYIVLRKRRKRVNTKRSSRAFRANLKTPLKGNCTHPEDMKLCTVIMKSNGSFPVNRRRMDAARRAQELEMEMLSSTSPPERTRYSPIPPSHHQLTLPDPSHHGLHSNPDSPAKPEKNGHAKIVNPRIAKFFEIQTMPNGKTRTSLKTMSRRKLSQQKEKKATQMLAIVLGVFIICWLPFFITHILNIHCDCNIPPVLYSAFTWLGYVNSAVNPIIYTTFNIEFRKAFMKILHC
UniProt P61169, whole entry: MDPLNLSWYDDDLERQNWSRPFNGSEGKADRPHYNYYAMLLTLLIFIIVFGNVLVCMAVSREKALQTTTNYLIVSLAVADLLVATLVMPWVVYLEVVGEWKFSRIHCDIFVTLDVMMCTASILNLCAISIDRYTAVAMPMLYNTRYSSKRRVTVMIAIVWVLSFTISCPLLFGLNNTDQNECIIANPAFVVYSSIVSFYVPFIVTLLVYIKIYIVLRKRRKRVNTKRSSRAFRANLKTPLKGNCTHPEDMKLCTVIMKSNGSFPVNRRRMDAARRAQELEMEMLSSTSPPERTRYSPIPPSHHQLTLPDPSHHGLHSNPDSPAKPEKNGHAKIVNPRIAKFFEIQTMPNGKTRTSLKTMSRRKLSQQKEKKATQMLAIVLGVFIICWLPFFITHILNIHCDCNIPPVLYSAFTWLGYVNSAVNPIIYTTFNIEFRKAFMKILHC
UniProt P61169, whole entry S194A: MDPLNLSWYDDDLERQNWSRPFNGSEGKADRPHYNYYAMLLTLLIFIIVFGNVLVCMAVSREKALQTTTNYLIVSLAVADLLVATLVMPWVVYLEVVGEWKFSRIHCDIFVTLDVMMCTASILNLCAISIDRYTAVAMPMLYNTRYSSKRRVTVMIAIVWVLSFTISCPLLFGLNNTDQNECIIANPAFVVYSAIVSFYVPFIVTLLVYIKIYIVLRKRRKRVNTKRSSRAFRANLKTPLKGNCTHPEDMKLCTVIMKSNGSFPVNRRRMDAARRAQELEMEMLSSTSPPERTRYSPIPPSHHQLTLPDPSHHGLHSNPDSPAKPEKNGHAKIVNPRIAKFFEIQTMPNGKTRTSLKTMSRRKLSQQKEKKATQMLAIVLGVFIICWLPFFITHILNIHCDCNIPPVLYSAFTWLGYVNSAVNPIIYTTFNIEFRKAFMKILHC

What was measured:
Assay in all cases: biochemical
Format in all cases: cell-based, C6 glioma
D(2) dopamine receptor [1] = biological target: D(2) dopamine receptor (Rattus norvegicus, UniProt P61169, S197A)
D(2) dopamine receptor [2] = biological target: D(2) dopamine receptor (Rattus norvegicus, UniProt P61169)
D(2) dopamine receptor [3] = biological target: T1, D(2) dopamine receptor (Rattus norvegicus, UniProt P61169, S194A)
D(2) dopamine receptor [4] = biological target: T1, D(2) dopamine receptor; remark: listed apart in the source

Question: Which results are given for `CN1CCc2cccc3c2[C@H]1Cc1ccc(O)c(O)c1-3` [APOMORPHINE]?
Answer: Kd (D(2) dopamine receptor [1]): 600 nM; Kd (D(2) dopamine receptor [2]): 200 nM; Kd (D(2) dopamine receptor [3]): 1600 nM; Kd (D(2) dopamine receptor [4]): 1200 nM
